The list is not random: actives were taken first. Their share in the collection is about 2.3%.
Yeast UUG start-1: modulators of start codon recognition fidelity in yeast; S. cerevisiae UUG-firefly luciferase reporter, luminescence/redox ratio; AID 602363; 350,000 tested, 0.13% active; activity score, % at 18.7 µM;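 active = replicate mean at a twofold rise or more, about +100% in these data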;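 also: firefly luciferase made from a UUG start codon reports start codon fidelity; reporter light over untreated wells divided by growth signal over untreated wells; some hits fall short of that in this replicate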
ASAP1 inh: inhibitors of human ASAP1 ArfGAP activity, primary screen, biochemical, fluorescence polarization | Arf-GAP with SH3 domain, ANK repeat and PH domain-containing protein 1 (Homo sapiens), … | ASAP1-stimulated ARF1 GTP hydrolysis, GDP FP detection | inhibition, % at 16.5 µM | actives 0.19% (n = 360,000) | AID 624377, 2012; in the data active = inhibition above about 25%
MC4R antagonist: MC4R antagonists of cAMP signaling, primary screen, cell-based, TR-FRET, antagonist arm of biased-ligand search | Melanocortin receptor 4 (Homo sapiens), P32245 | MC4R-expressing cells, MTII-stimulated cAMP, LANCE TR-FRET | inhibition, % at 6.5 µM | actives 0.48% (n = 360,000);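 active = inhibition above its plate's cutoff, the mean of tested wells on that plate plus 3 SD, cut at about 29% in these data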
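System: U2OS cells stably expressing human melanocortin 4 receptor (MC4R). Reagent: Melanotan II challenge after compound preincubation. Doses: 6.5 µM. Times: 30-min compound, 1-h challenge, 1-h detection, room temperature. Measured by: TR-FRET with Eu-cAMP and labeled anti-cAMP, 671 nm. Replicates: singlicate.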
MC4R ag barr: MC4R agonists recruiting beta-arrestin, primary screen, cell-based, luminescence, agonist arm of biased-ligand search. actives 0.98% (n = 360,000). activation, % at 8.9 µM. Melanocortin receptor 4 (Homo sapiens), P32245. U2OS MC4R beta-arrestin complementation; percent of melanotan II response, DMSO zero;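 active = activation above a per-plate cutoff, the mean activation of sample wells on that plate plus 3 SD, cut at about 8% in these data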
ARFGAP1 inh: inhibitors of rat ARFGAP1 GAP activity, primary screen, biochemical, fluorescence polarization, GDP tracer. ADP-ribosylation factor GTPase-activating protein 1 (Rattus norvegicus), Q62848. inhibition, % at 16.5 µM. Arfgap1-stimulated ARF1 GTP hydrolysis, GDP FP detection. actives 0.26% (n = 360,000);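 active = inhibition above a per-plate limit, mean inhibition of low control wells plus 3 SD, cut at about 25% in these data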
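Material: truncated rat Arfgap1 GAP domain; Incubation: compound-enzyme preincubation 20 min, reaction 120 min, detection 60 min, 25 °C; Read-out: percent inhibition of Arfgap1-stimulated GTP hydrolysis; Technique: FP, GDP Alexa 633 tracer displaced from anti-GDP antibody, 620/688 nm; Controls: No-Arfgap1 wells (100%) versus DMSO full-reaction wells (0%); Replication: single well per compound.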
NRP1-CendR mod: modulators of CendR peptide binding to NRP-1, primary screen, biochemical, fluorescence polarization, uHTS | Neuropilin-1 (Homo sapiens), O14786 | FAM-RPARPAR peptide binding to NRP-1 | inhibition, % at 25 µM | actives 0.85% (n = 360,000) | AID 602438, 2012;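 active = inhibition or corrected inhibition above about 18%, plus a signal ratio from 0.5 to 1.5, limit read from the data, passing the limit was not always enough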
Yeast UUG start-2: enhancers of UUG start codon usage in yeast, dose response, S. cerevisiae, UUG firefly luciferase, cherry-pick, set 2; AID 652061, 2013; shares compounds with Yeast UUG start-1; luminescence, 4 h; 100% means double the DMSO signal; 540 tested, under 10 active; activation, % at 38 µM;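 active = signal increase whose fitted curve reaches an absolute level of 40 at a concentration under 10 µM; inactive = activity opposite to the expected increase, or the rest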
Hits are given with their value; n = inactive; x = no result given; ! = a repeat was not active.

Sequences of proteins named here, by UniProt entry; tags and fusion partners are left off.
Melanocortin receptor 4 (Homo sapiens), P32245, UniProt P32245, whole entry, looked up: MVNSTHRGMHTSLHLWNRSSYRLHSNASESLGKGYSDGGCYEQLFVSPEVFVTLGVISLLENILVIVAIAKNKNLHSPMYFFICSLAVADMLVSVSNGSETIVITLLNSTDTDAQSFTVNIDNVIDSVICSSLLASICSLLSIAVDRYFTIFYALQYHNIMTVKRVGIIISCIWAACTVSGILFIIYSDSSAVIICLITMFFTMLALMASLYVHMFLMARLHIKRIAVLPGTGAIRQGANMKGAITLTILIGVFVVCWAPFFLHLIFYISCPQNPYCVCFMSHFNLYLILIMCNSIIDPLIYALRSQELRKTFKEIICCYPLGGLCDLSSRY
ADP-ribosylation factor GTPase-activating protein 1 (Rattus norvegicus), Q62848, UniProt Q62848, whole entry, looked up: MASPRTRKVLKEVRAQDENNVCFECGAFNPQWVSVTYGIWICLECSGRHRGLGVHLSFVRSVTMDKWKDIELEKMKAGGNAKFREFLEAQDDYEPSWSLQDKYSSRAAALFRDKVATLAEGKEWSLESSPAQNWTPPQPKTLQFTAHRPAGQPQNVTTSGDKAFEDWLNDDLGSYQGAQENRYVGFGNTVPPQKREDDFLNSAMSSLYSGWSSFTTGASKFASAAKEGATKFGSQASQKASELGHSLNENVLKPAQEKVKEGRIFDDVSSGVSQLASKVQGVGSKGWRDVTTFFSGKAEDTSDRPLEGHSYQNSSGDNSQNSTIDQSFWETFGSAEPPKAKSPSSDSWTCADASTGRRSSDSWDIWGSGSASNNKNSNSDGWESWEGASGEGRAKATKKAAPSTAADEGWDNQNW
Neuropilin-1 (Homo sapiens), O14786, UniProt O14786, whole entry, looked up: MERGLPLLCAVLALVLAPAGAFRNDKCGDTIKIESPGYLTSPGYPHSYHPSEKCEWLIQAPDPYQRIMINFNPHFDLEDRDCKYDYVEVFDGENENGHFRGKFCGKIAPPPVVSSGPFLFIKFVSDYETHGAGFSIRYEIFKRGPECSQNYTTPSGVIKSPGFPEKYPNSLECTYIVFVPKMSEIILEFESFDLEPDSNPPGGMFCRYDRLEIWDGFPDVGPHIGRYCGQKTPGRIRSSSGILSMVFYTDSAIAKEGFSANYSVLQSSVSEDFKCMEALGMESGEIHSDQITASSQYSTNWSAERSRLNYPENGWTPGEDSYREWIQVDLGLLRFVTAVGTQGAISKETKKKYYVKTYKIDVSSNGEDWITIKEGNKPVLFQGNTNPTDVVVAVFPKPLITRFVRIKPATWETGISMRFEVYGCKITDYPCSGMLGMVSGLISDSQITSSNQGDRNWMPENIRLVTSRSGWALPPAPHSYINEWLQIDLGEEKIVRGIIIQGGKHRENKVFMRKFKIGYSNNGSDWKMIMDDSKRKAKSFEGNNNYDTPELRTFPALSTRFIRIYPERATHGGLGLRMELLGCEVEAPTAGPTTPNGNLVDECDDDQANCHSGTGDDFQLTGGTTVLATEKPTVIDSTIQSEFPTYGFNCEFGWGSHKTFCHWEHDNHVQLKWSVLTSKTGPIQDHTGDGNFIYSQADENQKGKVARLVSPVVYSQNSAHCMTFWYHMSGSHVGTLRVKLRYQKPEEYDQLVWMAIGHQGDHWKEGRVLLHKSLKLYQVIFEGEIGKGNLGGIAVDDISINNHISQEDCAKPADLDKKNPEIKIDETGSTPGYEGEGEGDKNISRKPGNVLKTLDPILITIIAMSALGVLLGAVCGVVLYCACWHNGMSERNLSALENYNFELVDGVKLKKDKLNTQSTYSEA

SMILES	Yeast UUG start-1	ASAP1 inh	MC4R antagonist	MC4R ag barr	ARFGAP1 inh	NRP1-CendR mod	Yeast UUG start-2
CC1(C(O)(C#CC[N+]2(C)CCCCC2)c2ccccc2)CCCC1 (stereo unspecified)	x	n	n	n	n	n	x
CC1(C#CC[N+]2(C)CCCCC2)CCC2C(O1)c1ccccc1OC2(C)C (stereo unspecified)	active	n	n	n	n	n	n
C[C@H]1CN([C@@H](C)CO)C(=O)c2cc(C3=CCCCC3)cnc2O[C@H]1CN(C)C(=O)c1cccnc1	n	x	x	x	x	x	x
O=C(c1ccc(Cn2c(=O)[nH]c3ccccc3c2=O)cc1)N1CCN(c2ccccc2)CC1	480	n	n	n	n	n	n
C[C@@H]1CN([C@@H](C)CO)C(=O)c2cc(-c3cccnc3)cnc2O[C@H]1CN(C)C(=O)c1ccccc1F	166	x	x	x	x	x	n
COc1ccccc1-c1cnc2c(c1)C(=O)N([C@@H](C)CO)C[C@@H](C)[C@H](CN(C)C(=O)c1cccnc1)O2	200!	n	n	n	n	n	n
COc1ccccc1-c1cnc2c(c1)C(=O)N([C@@H](C)CO)C[C@@H](C)[C@@H](CN(C)Cc1ccncc1)O2	137	x	x	x	x	x	n
C[C@H](CO)N1C[C@H](C)[C@@H](CN(C)Cc2cncnc2)Oc2ncc(/C=C/c3ccccc3)cc2C1=O	250	x	x	x	x	x	n
O=C(C[C@@H]1CC[C@H]2[C@@H](COC[C@H](O)CN2Cc2cccc(-c3ccncc3)c2)O1)N1CCCCC1	n	x	x	x	x	x	x
C[C@H](CO)N1C[C@H](C)[C@H](CN(C)Cc2ccncc2)Oc2ncc(-c3cccc(C#N)c3)cc2C1=O	110	x	x	x	x	x	n
COc1ccc(-c2cnc3c(c2)C(=O)N([C@@H](C)CO)C[C@@H](C)[C@H](CN(C)Cc2cccnc2)O3)cc1	145	x	x	x	x	x	n
C[C@@H]1CN([C@@H](C)CO)C(=O)c2cc(NC(=O)Cc3cn(C)c4ccccc34)ccc2O[C@H]1CN(C)S(C)(=O)=O	n	x	x	x	x	x	x
CCOc1ccc(C(C)=O)cc1CSc1nc(C)cc(C)n1	213	n	n	n	n	n	n
COc1ccccc1CNC(=O)C[C@H]1C[C@@H]2c3cc(NC(=O)NC4CCCC4)ccc3O[C@@H]2[C@H](CO)O1	n	x	x	x	x	x	x
CC(C)CC#Cc1ccc2c(c1)O[C@@H](CN(C)C(=O)Cc1ccccn1)[C@H](C)CN([C@@H](C)CO)S2(=O)=O	n	x	x	x	x	x	x
O=C(NCCN1CCOCC1)C(=O)NCC1OCCCN1S(=O)(=O)c1cc(F)ccc1F (stereo unspecified)	172	n	n	n	n	n	n
COCC(=O)N(C)C[C@H]1Oc2cc(C#CC(C)C)ccc2S(=O)(=O)N([C@@H](C)CO)C[C@@H]1C	n	x	x	x	x	x	x
Cn1nc(CC(=O)NC2CCCCC2)c2ccccc2c1=O	x	n	n	n	n	n	n
Cn1nc(CC(=O)NC2CCCCCC2)c2ccccc2c1=O	n	n	n	n	n	n	n
CO[C@@H]1CN(C)C(=O)c2cc(NC(=O)NC(C)C)ccc2OC[C@@H](C)N(C(=O)CC2CC2)C[C@@H]1C	n	x	x	x	x	x	x
C[C@H](CO)N1C[C@H](C)[C@@H](CN(C)C(=O)Cc2ccccc2)Oc2ncc(C#Cc3ccccc3F)cc2C1=O	n	x	x	x	x	x	x
COc1ccccc1CCNC(=O)c1ccc(NC(=O)CC2SC(N3CCCCC3)=NC2=O)cc1 (stereo unspecified)	117	n	n	n	n	n	n
COc1ccccc1OCCNC(=O)c1ccc(NC(=O)CC2SC(N3CCCC3)=NC2=O)cc1 (stereo unspecified)	n	n	n	n	n	n	x
C[C@@H]1CN([C@@H](C)CO)C(=O)Cc2cc(NC(=O)CCN3CCOCC3)ccc2O[C@H]1CN(C)S(=O)(=O)c1cccs1	n	x	x	x	x	x	x
C[C@@H]1CN([C@@H](C)CO)C(=O)c2cc(NC(=O)CCCN(C)C)ccc2O[C@H]1CN(C)S(=O)(=O)c1ccc(Cl)cc1	n	x	x	x	x	x	x
SMILES	Yeast UUG start-1	ASAP1 inh	MC4R antagonist	MC4R ag barr	ARFGAP1 inh	NRP1-CendR mod	Yeast UUG start-2
CCc1ccccc1Nc1nc2ccccc2[nH]1	n	n	n	n	n	n	x
COc1ccccc1Nc1nc2ccccc2[nH]1	n	n	n	n	n	n	n
C[C@H](CO)N1C[C@H](C)[C@@H](CN(C)Cc2ccncc2)Oc2cc(C3=CCCC3)ccc2S1(=O)=O	n	x	x	x	x	x	x
O=C(C[C@@H]1C[C@H]2c3cc(NC(=O)C4CCOCC4)ccc3O[C@H]2[C@@H](CO)O1)NC1CCCC1	n	x	x	x	x	x	x
COCC(=O)Nc1ccc2c(c1)[C@@H]1C[C@H](CC(=O)NC3CCCCC3)O[C@H](CO)[C@@H]1O2	107	x	x	x	x	x	n
O=C(C[C@H]1C[C@@H]2c3cc(NC(=O)C4CCOCC4)ccc3O[C@@H]2[C@H](CO)O1)NC1CCCC1	102	x	x	x	x	x	n
O=C(C[C@@H]1C[C@H]2c3cc(NC(=O)C4CCC4)ccc3O[C@H]2[C@H](CO)O1)NCC1CC1	104	x	x	x	x	x	n
Cc1noc(C)c1S(=O)(=O)Nc1ccc2c(c1)CC(=O)N([C@H](C)CO)C[C@@H](C)[C@H](CN(C)Cc1ccc3c(c1)OCO3)O2	n	x	x	x	x	x	x
CC(C)NC(=O)Nc1ccc2c(c1)C(=O)N(C)[C@@H]1CC[C@H](CC(=O)NCC(F)(F)F)O[C@@H]1CO2	n	x	x	x	x	x	x
CCCc1[nH]nc2c1C(Cc1ccccc1)C(C#N)=C(N)O2 (stereo unspecified)	501	n	n	n	n	n	n
CC(C)CNC(=O)c1cccc(NC(=O)Cc2ccc(Cl)cc2)c1	249	n	n	n	n	n	n
O=C(C[C@@H]1C=C[C@@H](NC(=O)Nc2cccc(F)c2)[C@@H](CO)O1)NCC1CC1	n	x	x	x	x	x	x
O=C(Nc1ccc(Nc2ccccc2)cc1)c1ccco1	610	n	n	n	n	n	n
O=C(Nc1ccc(-c2ccccc2)cc1)c1ccco1	n	n	n	n	n	n	x
O=C(Nc1cc(F)ccc1F)N[C@H]1C=C[C@H](CC(=O)N2CCc3ccccc3C2)O[C@@H]1CO	n	x	x	x	x	x	x
CCCN(C)C[C@H]1OCCCC[C@@H](C)Oc2ccc(NC(=O)CCC(F)(F)F)cc2C(=O)N([C@@H](C)CO)C[C@H]1C	n	x	x	x	x	x	x

Screening data (PubChem)
